From PubChem BioAssay AID818 (SRMLSC, 2007) come the findings set out here.

Broadly, the viability is a read-out of living cells in per cent, often relative to untreated cells.

Each structure is given as a SMILES string. The list shows a part of the results, in another mix than the full data. Calls of active or inactive are those of the source.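 The calls were made as follows: active = viability at or under a set limit, the compound median less 4 SD (cut at about 6% in these data); inactive = the rest.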

The assay is described as follows: primary screen for growth suppressors in beta-catenin knockout HCT116 cells (colon tumor, human) (AID 818).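 Also: 0% = Hyamine 1622 control at 20 µM and 100% = untreated cell control.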 The note with it: CellTiter-Glo, 60 h, at 10 µM, stronger effect = lower value. (In general: In ATP-based viability assays light output follows the ATP content of the culture.)
On to `Oc1ccccc1CNc1ccccn1`, for which the viability is inactive: 100%.
As for `O=C(NC(Sc1ccncn1)C(Cl)(Cl)Cl)c1ccccc1` (stereo not drawn), the figure is inactive: 97.2%.
As for `Cc1c2non([O-])c-2c(C)[n+](=O)[n+]1[O-]`, the figure is inactive: 79.3%; as for `CC(C)CC(=O)NC(Sc1ccc(Cl)cc1)C(Cl)(Cl)Cl` (stereo not drawn), inactive: 86.4%.
Next, `CN1CCCC(OC(=O)C(c2ccccc2)c2ccccc2)C1` (stereo not drawn): inactive: 85.5%; `CCN(N=Nc1nonc1N)c1nonc1N`: inactive: 97%; `Cc1cc(SC(NC(=O)c2ccc(F)cc2)C(Cl)(Cl)Cl)ncn1` (stereo not drawn): inactive: 90.4%.
For the compound `CCOP(=O)(Nc1ccccc1)OCC`, the viability was inactive: 98.3%.
Next, `CC1CCN(C(=O)Oc2c(Cl)cc(Cl)c3cccnc23)CC1`: inactive: 68.7%.
As for `CN(C)C(=O)OCCc1n(C)cc[n+]1C`, the figure is inactive: 84.8%; as for `CCc1nc2c(n1)c1c(non1O)c1c2no[n+]1[O-]`, active: 1.48%.
Next, `CC(=O)N1C2C3N(C(C)=O)C1C1N(C(C)=O)C(C(N1C(C)=O)N3C(C)=O)N2C(C)=O`: inactive: 104%; `O=[N+]([O-])c1cccc2n[nH]nc12`: inactive: 99.8%; `O=P(Nc1nccs1)(c1ccccc1)c1ccccc1`: inactive: 103%.
As for `CC(C)C(=O)NC(Sc1ccccc1)C(Cl)(Cl)Cl` (stereo not drawn), the viability was inactive: 94%.
Next, `c1nnnn1CCn1cnnn1`: inactive: 100%.
Next, `CC(=O)NC(SC(=S)N(C)C)C(Cl)(Cl)Cl` (stereo not drawn): active: 4.17%; `O=C(OC1CN2CCC1CC2)c1cccc(Cl)c1` (stereo not drawn): inactive: 82.6%; `C(Cc1nn[nH]n1)Cc1nn[nH]n1`: inactive: 96.9%.
Next, `CCC(=O)N1C2C3N(C(=O)CC)C1C1N(C(=O)CC)C(C(N1C(=O)CC)N3C(=O)CC)N2C(=O)CC`: inactive: 105%.
`COC(=O)c1cc2c(s1)N=C(c1ccccc1)N(C)P2(=O)N1CCOCC1` (stereo not drawn): the viability is inactive: 111%.
Next, `CC(=O)NC(SC(=S)N(CC(C)C)CC(C)C)C(Cl)(Cl)Cl` (stereo not drawn): inactive: 17%; `CCOC(=O)NC(Sc1ccccc1)C(Cl)(Cl)Cl` (stereo not drawn): inactive: 95.3%.
Regarding `O=P1(Nc2nc3ccc(Cl)cc3s2)COc2ccccc2O1` (stereo not drawn), the viability was inactive: 93.3%.
As for `Cc1ccc(NCCc2c([N+](=O)[O-])cc([N+](=O)[O-])cc2[N+](=O)[O-])cc1`, the figure is inactive: 61.9%; as for `COc1cc(C2NCCC3(OCCO3)C2(C)C)cc(OC)c1OC` (stereo not drawn), inactive: 101%; as for `CCOP(=O)(Nc1cccc2ccccc12)OCC`, inactive: 88.3%.
Next, `Cc1cccc(OCC(=O)OC2CN3CCC2CC3)c1` (stereo not drawn): inactive: 91.1%; `CCOP1(=S)c2c(C)nn(CCC#N)c2N=C(c2ccc(F)cc2)N1C` (stereo not drawn): inactive: 72.6%; `O=[N+]([O-])c1ccc2c(c1)nnn2O`: inactive: 103%.
Turning to `CCOP1(=S)c2c(C)nn(CCC#N)c2N=C(c2ccccc2F)N1C` (stereo not drawn), the viability was inactive: 84.3%.
As for `O=P(Nc1nccs1)(c1ccccc1)c1nc2ccccc2s1` (stereo not drawn), the figure is inactive: 89.6%; as for `O=P1(Nc2ncccn2)COc2ccccc2OC1`, inactive: 98.5%; as for `Cc1ccc(OCC(=O)OC2CN3CCC2CC3)cc1` (stereo not drawn), inactive: 80.5%.
For the compound `O=P1(Nc2ccc(Br)cn2)COc2ccccc2OC1`, the viability is inactive: 101%.
As to `Cc1nn(-c2ccccc2)c2c1P(=O)(N1CCOCC1)N(C)C(c1ccccc1)=N2` (stereo not drawn), the viability is inactive: 105%.
For the compound `O=P1(Nc2ccccn2)COc2ccccc2OC1`, the viability is inactive: 97.8%.
Next, `Clc1n[nH]nc1-c1nn[nH][15n]1`: inactive: 93.7%.
As for `CCC(C)N(CC(C)C)C(=S)SC(NC(C)=O)C(Cl)(Cl)Cl` (stereo not drawn), the figure is inactive: 21.4%; as for `COP1(=S)c2c(C)nn(CCC#N)c2N=C(c2ccc(F)cc2)N1C` (stereo not drawn), inactive: 99%.
Next, `O=C(COc1ccccc1)OC1CN2CCC1CC2` (stereo not drawn): inactive: 92.9%.
On to `Cc1cc(SC(NC(=O)c2ccccc2)C(Cl)(Cl)Cl)nc(C(C)C)n1` (stereo not drawn), for which the viability was inactive: 101%.
In the case of `ClCCSc1nnc(-c2cccnc2)o1`, the viability is inactive: 103%.
As for `CCN(CC)C(=S)SC(NC=O)C(Cl)(Cl)Cl` (stereo not drawn), the viability is active: 3.35%.
As for `O=[N+]([O-])c1cc([N+](=O)[O-])c(-c2ccn[nH]2)s1`, the figure is active: 3.4%; as for `Cc1ccc2nc3c(c(C)c2c1)CC(C(Cl)Cl)S3` (stereo not drawn), inactive: 77.6%.
As for `Cc1c2c(nc3ccccc13)SC(C(Cl)Cl)C2` (stereo not drawn), the figure is inactive: 96%.
As for `O=C(OC1CN2CCC1CC2)C12CC3CC(CC(C3)C1)C2` (stereo not drawn), the figure is inactive: 88.7%.
